# ChEMBL document CHEMBL1129970, “Biologically active conformer of the effector region of human C5a and modulatory effects of N-terminal receptor binding determinants on activity” (J Med Chem, 1997)
# Assays:
# Homo sapiens [1] = species: Homo sapiens; assay: Effective concentration to induce smooth muscle contraction in human fetal artery; assay type: functional; conditions: Muscle tissue
# How it was run: (§1)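 Human fetal artery smooth muscle contraction; full dose–response curves for recombinant human C5a or each peptide in the same tissue preparation. EC50 is the concentration giving 50% of the maximal response, read relative to the C5a maximum. pD2 = −log EC50 (M), averaged per peptide ± SE. Log potency ratio pD2(C5a) − pD2(peptide) is computed within each experiment. Relative potency = antilog(−Δ) × 100.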
# Homo sapiens [2] = species: Homo sapiens; assay: Tested for inhibition of binding of [125I]C5a to intact human polymorphonuclear cells (PMN) (n=10); assay type: functional, organism-based
# Homo sapiens [3] = species: Homo sapiens; assay: Effective concentration to stimulate beta-glucuronidase release from human polymorphonuclear cells (PMN) (n=8); assay type: functional, organism-based
# Homo sapiens [4] = species: Homo sapiens; assay: Relative potency of peptide for human fetal artery was determined; assay type: functional; how it was run: as §1
# Homo sapiens [5] = species: Homo sapiens; assay: Selectivity of peptide was determined from antilog[pD2(fetal artery)-pD2 (PMN enzyme release)] (n=34); assay type: functional
# Homo sapiens [6] = species: Homo sapiens; assay: Spasmogenic activity was measured by the ability to induce smooth muscle contraction in human fetal artery; assay type: functional, Muscle tissue; how it was run: as §1
# Homo sapiens [7] = species: Homo sapiens; assay: Log potency ratio [pD2(C5a)-pD2(peptide)] was determined in human polymorphonuclear cells (PMN) (n=8); assay type: functional
# Homo sapiens [8] = species: Homo sapiens; assay: Relative potency of peptide to stimulate beta-glucuronidase release from human polymorphonuclear cells (PMN) (n=8); assay type: functional
# Homo sapiens [9] = species: Homo sapiens; assay: Ratio of concentration agonist potency (EC50) to concentration inhibiting [125I]-C5a binding (n=10); assay type: functional
# Homo sapiens [10] = species: Homo sapiens; assay: Log potency ratio [log IC50(C5a)-log IC50(peptide)] was determined in human polymorphonuclear cells (PMN) (n=10); assay type: functional
# Homo sapiens [11] = species: Homo sapiens; assay: Tested for the ability to stimulate beta-glucuronidase release from human polymorphonuclear cells (PMN) (n=8); assay type: functional
# Homo sapiens [12] = species: Homo sapiens; assay: Relative affinity for PMN receptor (n=10); assay type: functional
# Homo sapiens [13] = species: Homo sapiens; assay: Maximum efficacy relative to C5a (100%) for human polymorphonuclear cells (PMN) was determined (n=8); assay type: functional
# Homo sapiens [14] = species: Homo sapiens; assay: Log potency ratio [pD2(C5a)-pD2(peptide)] was determined in human fetal artery; assay type: functional; how it was run: as §1
EC50 (Homo sapiens [1]) [µM],IC50 (Homo sapiens [2]) [µM],EC50 (Homo sapiens [3]) [µM],SMILES,Potency (Homo sapiens [4]) [%],Selectivity (Homo sapiens [5]),pD2 (Homo sapiens [6]),Mean log concentration ratio (Homo sapiens [7]),Potency (Homo sapiens [8]) [%],Ratio (Homo sapiens [9]),Mean log concentration ratio (Homo sapiens [10]),pD2 (Homo sapiens [11]),C5a affinity (Homo sapiens [12]) [%],C5a max (Homo sapiens [13]) [%],Mean log concentration ratio (Homo sapiens [14])
0.2,6,4.1,CSCC[C@H](NC(=O)[C@@H]1CCCN1C(=O)[C@H](CCCCN)NC(=O)[C@H](Cc1ccccc1)NC(=O)[C@H](CO)NC(=O)[C@@H](N)Cc1ccc(O)cc1)C(=O)N1CCC[C@H]1C(=O)N[C@@H](CC(C)C)C(=O)N[C@H](C)C(=O)N[C@@H](CCCN=C(N)N)C(=O)O [listing 1 of 2 here],–,–,–,–,–,–,–,–,–,–,–
–,–,–,CSCC[C@H](NC(=O)[C@@H]1CCCN1C(=O)[C@H](CCCCN)NC(=O)[C@H](Cc1ccccc1)NC(=O)[C@H](CO)NC(=O)[C@@H](N)Cc1ccc(O)cc1)C(=O)N1CCC[C@H]1C(=O)N[C@@H](CC(C)C)C(=O)N[C@H](C)C(=O)N[C@@H](CCCN=C(N)N)C(=O)O [listing 2 of 2 here],7.8,24,6.75,2.06,0.9,0.7,3.84,5.37,0.014,216,1.11
